{"source": "patent US7132243B2", "about": "“Clonal expansion of T cells of unknown specificity and identification of ligand recognized by the clonally expanded T cells” (Juridical Foundation The Chemo-Sero-Therapeutic Research …, priority 2001, dated 2006)", "assay_in_all_cases": "Proliferative response of human T cell clone to X19 peptide library plus IL-2 ([3H]-thymidine incorporation)", "format_in_all_cases": "cell-based", "key": {"[1]": {"tested_on": "BC20.7 human CD4 T cell clone", "conditions": "clone BC20.7 (DR14, Vβ 13.3, BCGap84–100); 20 U/ml IL-2, 250 μM X19, mitomycin C-treated autologous PBMC, 72 h", "protocol": "(§1) For investigating whether X19 peptide library is capable of stimulating CD4 T cells of various specificities, mitomycin C-treated PBMC, human CD4 T cell clones of various specificities and IL-2 were co-incubated in the presence or absence of X19 peptide library.\n(§2) Human CD4 T cell clones examined in this study included OT1.1 (DP5 restriction; recognition of p53pl53–165 peptide); T31.1 (DP5 restriction; recognition of TEL/AML-1 peptide); DT13.2 (DQ6 restriction; recognition of DerfIp18–31 peptide); SK2.11 (DQ6 restriction; recognition of AchRp75–87 peptide); 29.28.1 (DR8 restriction; recognition of Rasp3–20 peptide); 29.15.2 (DR51 restriction; recognition of Rasp3–20 peptide); MK20.2 (DR53 restriction; recognition of GADp111–131 peptide); HY6.22 (DR4 restriction; recognition of DerfIp82–94 peptide); YT15.1 (DR15 restriction; recognition of BCGap84–100 peptide); SF36.16 (DR4 restriction; recognition of BCGap84–100 peptide); BC20.7 (DR14 restriction; recognition of BCGap84–100 peptide); BC33.5 (DR14 restriction; recognition of BCGap84–100 peptide); and BC42.1 (DR14 restriction; recognition of BCGap84–100 peptide).\n(§3) Each of the human T cell clones was weakly stimulated with radiated corresponding autologous PBMC in the presence of 50 U/ml human recombinant IL-2 and the endogenous peptides recognized by each of the human T cell clones. 2×10^4 cells/well test T cell clone were incubated in 96-well flat bottom culture plate in a culture medium containing 2 mM L-glutamine, 100 U/ml penicillin, 100 μg/ml streptomycin and 10% heat-inactivated self plasma in RPMI 1640 medium, supplemented with 20 U/ml human recombinant IL-2 and 1×10^5 cells/well autologous PBMC treated with mitomycin C, in the presence or absence of 250 μM X19 peptide library. Each clone was incubated for 72 hours wherein 1 μCi/well [^3H]-thymidine was added for the last 16 hours to estimate the effect of X19 peptide library on the enhancement of proliferative response of various human T cell clones. The results are shown in Table 1 which indicates [^3H]-thymidine incorporation after a 3-day culture determined in triplicate. In Table 1, mean cpm values are shown and standard error was less than 20%."}, "[2]": {"tested_on": "HY6.22 human CD4 T cell clone", "conditions": "clone HY6.22 (DR4, Der f Ip82–94); 20 U/ml IL-2, 250 μM X19, mitomycin C-treated autologous PBMC, 72 h", "protocol": "as §1, §2, §3"}, "[3]": {"tested_on": "BC42.1 human CD4 T cell clone", "conditions": "clone BC42.1 (DR14, Vβ 5.4, BCGap84–100); 20 U/ml IL-2, 250 μM X19, mitomycin C-treated autologous PBMC, 72 h", "protocol": "as §1, §2, §3"}, "[4]": {"tested_on": "SK2.11 human CD4 T cell clone", "conditions": "clone SK2.11 (DQ6, AchRp75–87); 20 U/ml IL-2, 250 μM X19, mitomycin C-treated autologous PBMC, 72 h", "protocol": "as §1, §2, §3"}, "[5]": {"tested_on": "T31.1 human CD4 T cell clone", "conditions": "clone T31.1 (DP5, TEL/AML-1); 20 U/ml IL-2, 250 μM X19, mitomycin C-treated autologous PBMC, 72 h", "protocol": "as §1, §2, §3"}, "[6]": {"tested_on": "BC33.5 human CD4 T cell clone", "conditions": "clone BC33.5 (DR14, Vβ 6.1, BCGap84–100); 20 U/ml IL-2, 250 μM X19, mitomycin C-treated autologous PBMC, 72 h", "protocol": "as §1, §2, §3"}, "[7]": {"tested_on": "YT15.1 human CD4 T cell clone", "conditions": "clone YT15.1 (DR15, BCGap84–100); 20 U/ml IL-2, 250 μM X19, mitomycin C-treated autologous PBMC, 72 h", "protocol": "as §1, §2, §3"}, "[8]": {"tested_on": "MK20.2 human CD4 T cell clone", "conditions": "clone MK20.2 (DR53, GADp111–131); 20 U/ml IL-2, 250 μM X19, mitomycin C-treated autologous PBMC, 72 h", "protocol": "as §1, §2, §3"}, "[9]": {"tested_on": "29.15.2 human CD4 T cell clone", "conditions": "clone 29.15.2 (DR51, Rasp3–20); 20 U/ml IL-2, 250 μM X19, mitomycin C-treated autologous PBMC, 72 h", "protocol": "as §1, §2, §3"}, "[10]": {"tested_on": "OT1.1 human CD4 T cell clone", "conditions": "clone OT1.1 (DP5, p53p153–165); 20 U/ml IL-2, 250 μM X19, mitomycin C-treated autologous PBMC, 72 h", "protocol": "as §1, §2, §3"}, "[11]": {"tested_on": "DT13.2 human CD4 T cell clone", "conditions": "clone DT13.2 (DQ6, Der f Ip18–31); 20 U/ml IL-2, 250 μM X19, mitomycin C-treated autologous PBMC, 72 h", "protocol": "as §1, §2, §3"}, "[12]": {"tested_on": "29.28.1 human CD4 T cell clone", "conditions": "clone 29.28.1 (DR8, Rasp3–20); 20 U/ml IL-2, 250 μM X19, mitomycin C-treated autologous PBMC, 72 h", "protocol": "as §1, §2, §3"}, "[13]": {"tested_on": "SF36.16 human CD4 T cell clone", "conditions": "clone SF36.16 (DR4, BCGap84–100); 20 U/ml IL-2, 250 μM X19, mitomycin C-treated autologous PBMC, 72 h", "protocol": "as §1, §2, §3"}}, "data": [{"substance": "IL-2: human recombinant IL-2", "values": [{"measurement": "Reactivity ([3H]-thymidine incorporation, mean cpm)", "setting": "[1]", "value": "1,421 cpm"}, {"measurement": "Reactivity ([3H]-thymidine incorporation, mean cpm)", "setting": "[2]", "value": "2,005 cpm"}, {"measurement": "Reactivity ([3H]-thymidine incorporation, mean cpm)", "setting": "[3]", "value": "1,914 cpm"}, {"measurement": "Reactivity ([3H]-thymidine incorporation, mean cpm)", "setting": "[4]", "value": "2,264 cpm"}, {"measurement": "Reactivity ([3H]-thymidine incorporation, mean cpm)", "setting": "[5]", "value": "1,312 cpm"}, {"measurement": "Reactivity ([3H]-thymidine incorporation, mean cpm)", "setting": "[6]", "value": "3,201 cpm"}, {"measurement": "Reactivity ([3H]-thymidine incorporation, mean cpm)", "setting": "[7]", "value": "1,729 cpm"}, {"measurement": "Reactivity ([3H]-thymidine incorporation, mean cpm)", "setting": "[8]", "value": "3,443 cpm"}, {"measurement": "Reactivity ([3H]-thymidine incorporation, mean cpm)", "setting": "[9]", "value": "1,280 cpm"}, {"measurement": "Reactivity ([3H]-thymidine incorporation, mean cpm)", "setting": "[10]", "value": "2,338 cpm"}, {"measurement": "Reactivity ([3H]-thymidine incorporation, mean cpm)", "setting": "[11]", "value": "1,927 cpm"}, {"measurement": "Reactivity ([3H]-thymidine incorporation, mean cpm)", "setting": "[12]", "value": "1,502 cpm"}, {"measurement": "Reactivity ([3H]-thymidine incorporation, mean cpm)", "setting": "[13]", "value": "2,407 cpm"}]}]}
